According to patent US20090214498A1, “ANTIMICROBIAL PEPTIDES AND BACTERIAL STRAINS THAT PRODUCE THEM” (TEAGASC- NATIONAL DIARY PRODUCTS RESEARCH CENTRE, priority 2005, published 2009):

Tested on: E. coli DPC6053
Test: 96-well plate assay (OD600), MIC
Assay type: cell-based, Escherichia coli
Settings: strain not given
Experimental: Preliminary characterisation of the antibacterial activity of peptides and fractions synthesised involved measurement of growth inhibition in a 96-well plate assay (1, 10) and utilisation of an agar diffusion method (16,39). The 96-well plate assay involved the use of controls of each peptide fraction alone (Cecropin P1 and indolicidin), as well as controls without peptide fractions (growth control). A control without bacteria (sterility control) was also included. The plates were incubated for 6 h at 37° C. and culture growth monitored hourly. Minimum inhibitory concentrations (MIC's) were taken as the lowest concentration without visible growth, measured by recording the OD600, in a micro-titre plate reader. A well diffusion assay (16, 40) was used to detect antibacterial activity of purified and chemically synthesised peptides. These assays were performed in either Brain Heart Infusion (BHI), Luria Bertani (LB) or Nutrient agar (NA) seeded with 1 ml of an overnight culture of the indicator strains E. coli DPC6053, L. innocua DPC3306, E. sakazakii 5920 (ATCC12868) or E. sakazakii 8272 (NCTC8155) respectively. […] The sensitivity of a strain to the peptides was scored according to the diameter of the zone of inhibition surrounding the well. The experiments were performed in triplicate and mean zone size calculated. […]

## CC[C@H](C)[C@H](N)C(=O)N[C@@H](CC(C)C)C(=O)N1CCC[C@H]1C(=O)N[C@@H](Cc1c[nH]c2ccccc12)C(=O)N[C@@H](CCCCN)C(=O)N[C@@H](Cc1c[nH]c2ccccc12)C(=O)N1CCC[C@H]1C(=O)N[C@@H](Cc1c[nH]c2ccccc12)C(=O)N[C@@H](Cc1c[nH]c2ccccc12)C(=O)N1CCC[C@H]1C(=O)N[C@@H](Cc1c[nH]c2ccccc12)C(=O)N[C@@H](CCCNC(=N)N)C(=O)N[C@@H](CCCNC(=N)N)C(N)=O [indolicidin, Indolicidin]
  MIC of commercially available control peptides: 50 µM
